Assay outcomes deposited in PubChem BioAssay by National Center for Advancing Translational Sciences (NCATS).
Shown are actives, neighbours in structure and some others; about 16% of the full set was active somewhere.
TDP1 inh = inhibitors of human tyrosyl-DNA phosphodiesterase TDP1; Q9NUW8; recombinant TDP1, AlphaScreen DNA substrate cleavage; Potency, µM (highest dose often 130 µM), without a hit: at the top dose activity change, negative = inhibition, hits mostly inhibitors; hit rate 0.28% among 350,000; AID 485290; note: potency is the fitted concentration of half-maximal effect; % is set by controls: 0 for no effect and ±100 for the full control effect; nearly all actives have a fitted effect of over 40% in size
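Signal: AlphaScreen proximity between streptavidin donor and anti-FITC acceptor beads on intact substrate. Reaction: Tdp1 1 nM, substrate 15 nM final, 5 min RT after 15 min compound preincubation.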
DT40 TDP1 CPT = DT40-hTDP1 cell growth loss with CPT. Potency, µM (series often up to 46.2 µM), for inactives: top-dose activity change, negative = growth inhibition, most hits filed as inhibitors. chicken DT40 Tdp1-/-;hTDP1 cells + 20 nM CPT, ATP luminescence, 48 h. hit rate 12% among 420,000; note: potency is the fitted concentration of half-maximal effect; % is set by controls: 0 for no effect and ±100 for the full control effect; nearly all actives have a fitted effect of over 55% in size
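Chicken DT40 Tdp1-/- cells stably complemented with human TDP1 were seeded at 400 cells/well in medium containing 20 nM camptothecin, exposed to pin-transferred compounds, and grown at 37 °C for at least 48 hr. Viability was read as ATP luminescence.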
uPA generation = cell surface uPA generation inhibition; cell surface uPA generation assay, qHTS; Potency, µM (highest dose often 38.3 µM), for the others: top-dose activity change, negative = inhibition, hits mostly inhibitors; hit rate 0.31% among 330,000; AID 540303; active = well fitted inhibition curve with a large enough effect; inconclusive = small, poorly fitted or top-dose-only effect; inactive = no such curve, though single readings can be large or run the other way; tested in mouse RAW 264.7 cells; note: potency is the fitted concentration of half-maximal effect; % is set by controls: 0 for no effect and ±100 for the full control effect; nearly all actives have a fitted effect of over 55% in size
miR-21 reporter = raises the signal of a miR-21 reporter | HeLa miR-21 FLuc reporter, luciferase, 48 h | Potency, µM (doses to about 38.3 µM), for the others: at the highest dose reporter change, positive = more light | 340,000 tested, under 10 active | AID 2288; active = well fitted rising curve with a large enough effect; inconclusive = small, poorly fitted or top-dose-only effect; inactive = no such curve, though single readings can be large or run the other way;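 also: % of control where 0% means no effect; miR-21 action dims this reporter so a rising signal means less miR-21 action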
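Compounds were titrated across several concentrations (up to approximately 40 uM) and incubated 48 hours with HeLa miR-21-FLuc reporter cells (miR-21 target sequence downstream of FLuc, endogenous miR-21). Readout was firefly luciferase luminescence after lytic detection reagent.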
DT40 TDP1 no CPT = qHTS for Inhibitors of human tyrosyl-DNA phosphodiesterase 1 (TDP1): qHTS in cells in absence of CPT; hit rate 15% among 420,000; DT40 Tdp1-/- hTDP1 cells, no CPT, ATP luminescence, 48 h; Potency, µM (series often up to 46.2 µM), for inactives: at the top dose activity change, negative = growth inhibition, most hits filed as inhibitors; note: potency is the fitted concentration of half-maximal effect; % is set by controls: 0 for no effect and ±100 for the full control effect; nearly all actives have a fitted effect of over 55% in size
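Stably hTDP1-transfected Tdp1-null chicken DT40 cells were treated with library compounds minus camptothecin and grown for at least 48 hr at 37 °C, after which cellular ATP was quantified by luminescence.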
An asterisk follows results filed as active; ? = inconclusive; · = no result. Unless noted, calls come from the whole dose curve; as a rule, active = well fitted curve in the direction sought with a large enough effect; inconclusive = small, poorly fitted or top-dose-only effect, or another doubt; inactive = no such curve, though single readings can be large; an effect the other way counts as inactive or inconclusive.

Labels used below – A = TDP1 inh; B = DT40 TDP1 CPT; C = uPA generation; D = miR-21 reporter; E = DT40 TDP1 no CPT
CC(OC(=O)c1cccc(-n2cnnn2)c1)c1nc2ccccc2c(=O)[nH]1 (stereo unspecified)
  A: 2.5%	B: -14.8%	C: -2.4%	D: ·	E: -3.1%

O=C(NCc1cccs1)C1CCN(S(=O)(=O)c2cccc3cccnc23)CC1
  A: 3.7%	B: -8.2%	C: -2.5%	D: -11.1%	E: -16.5%

CC(NS(=O)(=O)c1c(N)n(C)c(=O)n(C)c1=O)c1ccccc1 (stereo unspecified)
  A: -1.5%	B: -0.8%	C: 1.1%	D: -0.1%	E: ?

O=c1c2sc3ccccc3c2n(Cc2cccc(Cl)c2)c(=O)n1Cc1ccco1
  A: 0.0%	B: 20.6µM*	C: ·	D: -6.5%	E: 23.1µM*

O=c1c2sc3ccccc3c2n(Cc2cccc(C(F)(F)F)c2)c(=O)n1Cc1ccccc1
  A: -0.9%	B: ?	C: ·	D: -4.8%	E: ?

O=c1c2sc3ccccc3c2n(Cc2cccc(F)c2)c(=O)n1Cc1ccccc1
  A: -3.8%	B: ?	C: ·	D: -0.1%	E: 16.4µM*

CCN1C[C@@H]2[C@@H]3C(=O)N(C)C(=O)[C@@H]3[C@](Cc3ccccc3)(C1=O)N2C(=O)c1ccc(Cl)c(Cl)c1
  A: ·	B: ?	C: -10.6%	D: ·	E: ?

O=C(CC1SC(=Nc2ccccc2)N(CCc2ccccn2)C1=O)Nc1ccc(F)cc1 (stereo unspecified)
  A: 5.5%	B: ?	C: -13.6%	D: 7.6%	E: ?

Cc1cccc(C)c1N=C1SC(CC(=O)Nc2c(C)cccc2C)C(=O)N1CCc1ccccn1 (stereo unspecified)
  A: 4.5%	B: ?	C: -2.9%	D: -2.0%	E: 16.4µM*

COc1ccc(-c2nn(C)c3sc(C(=O)Nc4cc(OC)c(OC)c(OC)c4)cc23)cc1OC
  A: 11.6%	B: 18.4µM*	C: ·	D: -1.0%	E: 6.51µM*

COc1ccc(-c2nn(C)c3sc(C(=O)NCc4ccco4)cc23)cc1OC
  A: 6.5%	B: ?	C: 5.7%	D: -6.3%	E: 20.6µM*

COc1cccc(-c2nn(C)c3sc(C(=O)NCc4cc(OC)ccc4OC)cc23)c1
  A: 4.7%	B: ?	C: ·	D: 9.8%	E: ?

COc1ccc(NC(=O)c2cc3c(-c4ccc(OC)c(OC)c4)nn(C)c3s2)cc1OC
  A: 7.6%	B: 18.4µM*	C: -5.2%	D: 8.6%	E: 20.6µM*

O=S(=O)(c1ccc(Cl)cc1)N1CCCN(c2nc3ccc(Cl)cc3s2)CC1
  A: 5.7%	B: -15.1%	C: 2.1%	D: 1.4%	E: -23.1%

Cc1cccc(NC(=O)CSCC(=O)Nc2ccccc2C(=O)NC2CC2)c1
  A: -11.3%	B: 1.1%	C: 2.3%	D: ·	E: -26.3%

COc1cccc(CNC(=O)c2c(OC)cc(=O)n3c2CCN(C(=O)C2CC=CCC2)CC3)c1 (stereo unspecified)
  A: ·	B: -9.5%	C: ·	D: ·	E: -12.8%

COc1ccc(F)cc1S(=O)(=O)NCC(=O)NCc1cc(=O)n(C)c(=O)n1C
  A: 3.5%	B: 12.8%	C: -0.9%	D: 2.5%	E: 1.7%

O=c1cc(COn2nnc3ccc(C(F)(F)F)cc32)nc2sccn12
  A: 0.0%	B: -9.0%	C: -1.8%	D: -7.4%	E: -28.9%

C[C@H](O)[C@@H]1C(=O)N2CCc3c([nH]c4ccccc34)[C@@H]2C[C@@H]1N(C)C(=O)c1cc(Cl)cc(Cl)c1
  A: ·	B: 23.1µM*	C: ·	D: ·	E: 18.4µM*

C[C@H](O)[C@@H]1CN2CCc3c([nH]c4ccccc34)[C@@H]2C[C@@H]1N(C)Cc1cc(Cl)cc(Cl)c1
  A: ·	B: ?	C: ·	D: ·	E: 23.1µM*

COc1ccc(C(=O)N(C)[C@H]2C[C@H]3c4[nH]c5ccccc5c4CCN3C(=O)[C@H]2CO)cc1
  A: ·	B: -16.9%	C: ·	D: ·	E: ?

C[C@H](O)[C@@H]1C(=O)N2CCc3c([nH]c4ccccc34)[C@@H]2C[C@@H]1N(C)Cc1ccc2c(c1)OCO2
  A: ·	B: ?	C: ·	D: ·	E: 16.4µM*

Cc1ccccc1C(=O)N(C)[C@H]1C[C@H]2c3[nH]c4ccccc4c3CCN2C(=O)[C@H]1[C@H](C)O
  A: ·	B: ?	C: ·	D: ·	E: 20.6µM*

O=C(O)c1oc2ccccc2c1CN1CCN(c2ccccc2)CC1
  A: 11.9%	B: -12.5%	C: 8.2%	D: -0.5%	E: -0.8%

C[C@H](O)[C@@H]1C(=O)N2CCc3c([nH]c4ccccc34)[C@@H]2C[C@@H]1N(C)S(=O)(=O)c1ccccc1
  A: ·	B: ?	C: ·	D: ·	E: 23.1µM*

Quoted from the listing:
CCN1C[C@@H]2[C@@H]3C(=O)N(C)C(=O)[C@@H]3[C@](Cc3ccccc3)(C1=O)N2C(=O)c1ccc(Cl)c(Cl)c1 | uPA generation = -10.6%
C[C@H](O)[C@@H]1C(=O)N2CCc3c([nH]c4ccccc34)[C@@H]2C[C@@H]1N(C)S(=O)(=O)c1ccccc1 | DT40 TDP1 no CPT = 23.1µM*
COc1cccc(-c2nn(C)c3sc(C(=O)NCc4cc(OC)ccc4OC)cc23)c1 | TDP1 inh = 4.7%
